Results reported in ChEMBL document CHEMBL4351003, “Selective Toll-like receptor 7 agonists with novel chromeno[3,4-d]imidazol-4(1H)-one and 2-(trifluoromethyl)quinoline/ quinazoline-4-amine scaffolds” (Eur J Med Chem, 2019).

Target: T1, Toll-like receptor 7 (Homo sapiens) (UniProt Q9NYK1)
T1 sequence (whole entry): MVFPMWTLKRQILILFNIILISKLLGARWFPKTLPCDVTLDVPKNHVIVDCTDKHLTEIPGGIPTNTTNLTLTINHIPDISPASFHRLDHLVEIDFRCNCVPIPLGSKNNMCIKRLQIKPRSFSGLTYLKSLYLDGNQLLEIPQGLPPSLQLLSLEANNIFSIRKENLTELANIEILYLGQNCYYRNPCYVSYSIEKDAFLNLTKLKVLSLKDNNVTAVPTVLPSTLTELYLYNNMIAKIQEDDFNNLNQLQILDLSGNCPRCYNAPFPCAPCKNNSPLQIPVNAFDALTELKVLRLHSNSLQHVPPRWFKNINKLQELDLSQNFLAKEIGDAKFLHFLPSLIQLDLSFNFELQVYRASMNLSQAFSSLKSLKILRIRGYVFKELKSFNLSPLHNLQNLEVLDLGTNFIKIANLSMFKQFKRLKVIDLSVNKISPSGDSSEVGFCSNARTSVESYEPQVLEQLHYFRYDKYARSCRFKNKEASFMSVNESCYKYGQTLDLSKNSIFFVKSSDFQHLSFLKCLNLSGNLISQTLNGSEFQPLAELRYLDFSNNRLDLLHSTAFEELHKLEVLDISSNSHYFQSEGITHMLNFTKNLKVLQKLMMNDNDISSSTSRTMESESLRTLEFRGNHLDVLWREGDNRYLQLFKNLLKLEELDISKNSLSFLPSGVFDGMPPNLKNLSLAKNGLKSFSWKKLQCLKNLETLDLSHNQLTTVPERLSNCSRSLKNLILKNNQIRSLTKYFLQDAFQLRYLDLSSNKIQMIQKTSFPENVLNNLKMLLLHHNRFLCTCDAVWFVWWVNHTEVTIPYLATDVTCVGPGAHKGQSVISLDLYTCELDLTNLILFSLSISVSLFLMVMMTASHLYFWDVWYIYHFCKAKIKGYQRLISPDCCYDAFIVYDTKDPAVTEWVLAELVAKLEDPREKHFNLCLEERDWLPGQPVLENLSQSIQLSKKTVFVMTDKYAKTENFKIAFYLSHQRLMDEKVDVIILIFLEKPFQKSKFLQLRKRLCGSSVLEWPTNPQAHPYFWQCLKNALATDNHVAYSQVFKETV
Test: Antagonist activity at human TLR7 in HEK293 cells cotransfected with SEAP reporter gene assessed as activity of SEAP preincubated for 2 hrs followed by imiquimod addition further incubated for 24 hrs by quanti-blue staining based SEAP reporter gene assay
Assay type: cell-based

SMILES | Activity
COCCn1cnc2c(=O)oc3ccccc3c21 | inactive
CN1CCN(c2nc(C(F)(F)F)nc3ccccc23)CC1 | inactive
FC(F)(F)c1nc(N2CCOCC2)c2ccccc2n1 | inactive
C=CCn1cnc2c(=O)oc3ccccc3c21 | inactive
Oc1nc(C(F)(F)F)nc2ccccc12 | inactive
Nc1ccc(CNc2nc(C(F)(F)F)nc3ccccc23)cc1 | inactive
CC(C)n1cnc2c(=O)oc3ccccc3c21 | inactive
COc1ccc2oc(=O)c3ncn(CC(C)C)c3c2c1 | inactive
CC(C)Cn1cnc2c(=O)oc3ccc(F)cc3c21 | inactive
CC(C)Cn1cnc2c(=O)oc3ccc([N+](=O)[O-])cc3c21 | inactive
O=C(O)CNc1nc(C(F)(F)F)nc2ccccc12 | inactive
CCn1cnc2c(=O)oc3ccc(F)cc3c21 | inactive
CC1CCCN(c2cc(C(F)(F)F)nc3ccccc23)C1 (centres undefined) | inactive
CCCn1cnc2c(=O)oc3ccccc3c21 | inactive
COCCCn1cnc2c(=O)oc3ccccc3c21 | inactive
FC(F)(F)c1nc(NCCN2CCCCC2)c2ccccc2n1 | inactive
FC(F)(F)c1nc(Cl)c2ccccc2n1 | inactive
Nc1nc(C(F)(F)F)nc2ccccc12 | inactive
FC(F)(F)c1nc(NCCc2cnc[nH]2)c2ccccc2n1 | inactive

Active and inactive are the calls of the source. No cut-off for these calls is given here.
